Earlier results on one substance are cited in patent US20070092546A1, “Thiamin based insect repellant” (Violet Fire, LLC, priority 2005, published 2007).

The conditions of the data set: with most commercially available solvents; cited from earlier work.

Thiamin mononitrate: the solubility result is “not readily soluble”.
